Experiments:
[1] = molecular target: T1, Serine/threonine-protein kinase D1 (Homo sapiens, UniProt Q15139); experiment: Inhibition of PKD1 in the presence of 50uM ATP
T1 sequence (Q15139 whole entry): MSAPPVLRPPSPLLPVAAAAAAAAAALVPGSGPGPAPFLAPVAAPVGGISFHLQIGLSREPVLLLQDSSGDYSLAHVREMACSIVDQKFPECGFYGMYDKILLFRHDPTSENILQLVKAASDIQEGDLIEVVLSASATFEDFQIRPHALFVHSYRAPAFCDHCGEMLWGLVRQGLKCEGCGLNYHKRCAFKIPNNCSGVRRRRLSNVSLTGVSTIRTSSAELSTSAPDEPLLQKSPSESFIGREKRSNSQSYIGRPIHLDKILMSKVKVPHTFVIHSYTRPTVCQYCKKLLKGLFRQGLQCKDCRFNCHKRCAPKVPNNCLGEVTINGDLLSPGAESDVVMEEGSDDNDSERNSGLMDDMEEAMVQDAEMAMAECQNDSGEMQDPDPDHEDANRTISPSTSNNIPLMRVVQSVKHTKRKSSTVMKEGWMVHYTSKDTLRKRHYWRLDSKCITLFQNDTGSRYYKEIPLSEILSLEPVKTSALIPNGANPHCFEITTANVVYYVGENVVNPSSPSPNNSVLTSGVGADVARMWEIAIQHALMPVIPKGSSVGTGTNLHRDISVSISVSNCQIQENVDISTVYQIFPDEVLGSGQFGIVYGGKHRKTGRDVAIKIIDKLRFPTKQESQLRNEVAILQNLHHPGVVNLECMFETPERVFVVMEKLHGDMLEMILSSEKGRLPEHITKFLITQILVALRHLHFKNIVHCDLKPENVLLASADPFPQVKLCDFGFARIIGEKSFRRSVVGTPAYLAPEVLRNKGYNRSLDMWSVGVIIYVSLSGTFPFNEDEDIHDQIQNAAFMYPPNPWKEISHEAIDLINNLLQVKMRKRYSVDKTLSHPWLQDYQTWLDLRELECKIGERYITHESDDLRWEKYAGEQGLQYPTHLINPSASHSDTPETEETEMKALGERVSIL

[2] = molecular target: Proto-oncogene tyrosine-protein kinase Src (Gallus gallus, UniProt P00523); experiment: Inhibition of Src in the presence of 50uM ATP

Row | Compound | IC50 [1] | IC50 [2]
1 | CC(C)(C)n1nc(-c2cccc3ccccc23)c2c(N)ncnc21 | 900 nM (antagonist) | 
2 | CC(C)(C)n1nc(Cc2cccc3ccccc23)c2c(N)ncnc21 |  | 620 nM (antagonist)
